The text below walks through data of patent US20260248920A1, “COMPOSITION FOR PREVENTING OR TREATING INFLAMMATORY DISEASES, CONTAINING POLY(ORGANOPHOSPHAZENE) POLYMER” (KOREA INSTITUTE OF SCIENCE AND TECHNOLOGY, priority 2022, published 2026).

This assay deals with pro-inflammatory cytokines COX-2, IL-1, IL-6, MMP-3, MMP-13, TNF-α. Briefly: RT-PCR of blood in defective Achilles tendon model: pro-inflammatory cytokines. To be noted: 4 weeks after injection. It counts as in vivo, mice.

On to `Cc1ccc(-c2cc(C(F)(F)F)nn2-c2ccc(S(N)(=O)=O)cc2)cc1` [CXB, Celecoxib], for which the “COX-2 expression increase compared to control group” value is 6.3 fold, the “IL-1 expression increase compared to control group” value is given as 5.4 fold, the “IL-6 expression increase compared to control group” value is listed as 6.0 fold and the “MMP-3 expression increase compared to control group” value was 5.9 fold. The “MMP-13 expression increase compared to control group” value amounted to 7.2 fold and the “TNF-α expression increase compared to control group” value is listed as 6.7 fold.
